Data set [1] concerns O=C(O)c1ccc(C(=O)OCCO)cc1. Description: purified protein. The following applies: TurboPETase, 65 °C, pH 8.0, 100 mM potassium phosphate, 6-60 mM MHET, 0.1 mg/mL enzyme, 15 min.
For data set [2], the system named is CCCC(=O)Oc1ccc([N+](=O)[O-])cc1. As to the kind of experiment: purified protein. The following applies: TurboPETase, 65 °C, pH 8.0, 10 mM potassium phosphate, 0.2-1.4 mM pNPB, 0.5 µg/mL enzyme, 3 min.

Broadly, the Km is the concentration of substrate that gives half-maximal velocity. The term kcat denotes the number of substrate molecules converted per active site and unit of time at saturation. With “BhrPETase (bacterium HR29; A209R/A251C/A281C/D238K/F222I/F243T/H218S/W104L)”, in data set [1], the Km came out at 33.80 ± 7.23 mM and the kcat was 3.67 ± 0.37 s⁻¹. Besides, in data set [2], the Km is recorded as 0.60 ± 0.04 mM and the catalytic constant (kcat) was 147.78 ± 4.17 s⁻¹.

The values are drawn from paper PMC10869840.
